From PubChem
UUG fidelity = modulators of start codon recognition fidelity in yeast; S. cerevisiae UUG-firefly luciferase reporter, luminescence/redox ratio; activity score, % at 18.7 µM; hit rate 0.13% among 350,000; AID 602363;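 active = replicate mean at a twofold rise or more, about +100% in these data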;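 note: firefly luciferase made from a UUG start codon reports start codon fidelity; reporter light over untreated wells divided by growth signal over untreated wells; some hits fall short of that in this replicate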
Rce1 inhib = yeast Rce1p protease inhibitors, primary screen, biochemical, fluorescence, cell-free homogeneous. 290,000 tested, 0.27% active. CAAX prenyl protease 2 (Saccharomyces cerevisiae (strain ATCC 204508 / S288c)), Q03530. yeast membranes, quenched prenylated peptide cleavage fluorescence. calls only. AID 2563, 2010;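 active = fall in fluorescence gain of 50% or more versus controls, with final raw signal at or below 3038400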;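 note: plate controls were neutral control wells for no effect and wells lacking membranes for full effect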
TbMetRS inhib = T. brucei MetRS inhibitors, primary screen, biochemical, luminescence | purified T. brucei MetRS, ATP depletion, Kinase-Glo luminescence | inhibition, % at 11.9 µM | 360,000 tested, 0.4% active;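 active = inhibition above a per-plate cutoff of the control wells' mean inhibition plus 3 SD, cut at about 5.5% in these data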;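 note: 0% = DMSO wells median and 100% = median of wells with control inhibitor compound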
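Assay system: T. brucei methionyl-tRNA synthetase, purified | Medium: HEPES buffer with MgCl2, KCl, DTT, spermine, BSA, pyrophosphatase | Compound: 11.9 µM single point | Incubation: 15 min enzyme-compound preincubation, 2 h reaction, 10 min detection, 25 °C | Measured by: Kinase-Glo luciferase luminescence reporting remaining unconsumed ATP | Measure: % inhibition normalized to control-well medians | Replication: Singlicate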
Arrestin-AP2 inh = inhibitors of beta-arrestin/AP2 binding, primary screen, biochemical, GPCR trafficking, flow cytometry | beta-arrestin 1 C-terminal peptide binding to AP2 beta2-adaptin appendage (human) | FITC-arrestin peptide / GST-AP2 beads; AP2 beta2 appendage carries R879A mutation | inhibition, % at 10 µM | 340,000 tested, 0.31% active;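 active = inhibition above a set limit, near 3 SD of compounds lacking own fluorescence, cut at about 54% in these data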;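 note: plate controls were DMSO wells for no effect and 5 µM unlabelled arrestin peptide for full effect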
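Assay system: GST-AP2 R879A bound to glutathione beads, E. coli-expressed; Medium: PBS with 0.05% Tween 20 and 0.1% BSA; Also added: fluorescein-tagged arrestin peptide at 50 nM final; Timing: 12 min plus 1 h, RT; Measured by: flow cytometry, FL1 (488/535 nm); Evaluation: percent drop in bead-associated FITC signal.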
DSG3 Ab inh = inhibitors of pemphigus antibody binding to DSG3, primary screen, biochemical, bead-based, flow cytometry, scFv-GFP; Desmoglein-3 (Homo sapiens), P32926; DSG3-coupled beads, scFv-anti-DSG3-GFP binding; hits give low values; binding (percent of control), % at 10 µM; 310,000 tested, 0.48% active; AID 588358, 2011;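 active = binding more than 3 SD below its plate's average and above zero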;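 note: hits lower antibody fragment binding to DSG3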
Arr-AP2 CP1 = inhibitors of arrestin peptide binding to AP2, confirmation, biochemical, cherry pick 1, flow cytometry beads | inhibition, % at 10 µM | GST-AP2 beads, FITC arrestin peptide binding; GST-fused beta2-adaptin appendage, R879A mutant | 1,300 tested, 2% active | shares compounds with Arrestin-AP2 inh | AID 504908, 2011;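 active = inhibition above a set limit, roughly 3 SD of non-fluorescent compound noise, cut at about 38% in these data; inactive = inhibition at or below that limit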;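 note: loss of bead fluorescence from 50 nM FITC arrestin peptide bound to appendage; 0% = negative control wells and 100% = excess unlabelled arrestin peptide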
GST-FITC bead = GST-fluorescein capture on glutathione beads, confirmation, artefact control for arrestin-AP2 inhibitor project, biochemical, cherry pick 1, flow cytometry | 1,300 tested, 2% active | AID 588338, 2011 | inhibition, % at 10 µM | shares compounds with Arrestin-AP2 inh | GST-fluorescein binding to GSH beads, fluorescence, counter-screen;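 active = inhibition above 50%, about 3 SD of the inhibition seen with non-fluorescent compounds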;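 note: fluorescein maleimide labelled GST captured on 4 micron glutathione beads; higher means more loss of bead fluorescence from quenching or blocked binding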
An asterisk follows results filed as active; i = inactive; . = not tested or not shown. Most compounds without a hit are left out; they make up all but 1.2% or so of the library.

SMILES | UUG fidelity | Rce1 inhib | TbMetRS inhib | Arrestin-AP2 inh | DSG3 Ab inh | Arr-AP2 CP1 | GST-FITC bead
Cc1ccc(CN2C(=O)CCC2C(=O)NCCc2ccccc2)cc1 (stereo not given) | -3.1 | i | 0.1 | -1.7 | 94.7 | . | .
O=C(NCCCN1CCN(c2cccc(Cl)c2)CC1)C1CCC(=O)N1Cc1ccccc1Cl (stereo not given) | 0.2 | i | -1.2 | 4.4 | 106.2 | 5.8 | -10.6
COc1cc(OC)cc(C(=O)NCC(=O)OCc2nc3ccccc3s2)c1 | . | i | 0.0 | 55.4* | 96.6 | 1.2 | 5.0
O=C(CNC(=O)c1ccc(Cl)cc1)OCc1nc2ccccc2s1 | . | i | 4.9 | -6.0 | 85.0 | . | .
C[C@@H]1CCCCO[C@H](CN(C)C(=O)NC2CCCCC2)[C@@H](C)CN([C@H](C)CO)C(=O)c2cc(NC(=O)Nc3cccc4ccccc34)ccc2O1 | -4.0 | . | . | . | . | . | .
CCOC(=O)c1c(C)nc2c(c1-c1ccccc1)C(=O)c1ccccc1-2 | -2.3 | i | -2.1 | 0.6 | 97.5 | . | .
COc1cc(-c2c(C(C)=O)c(C)nc3c2C(=O)c2ccccc2-3)cc(OC)c1OC | 4.0 | i | -1.0 | 59.2* | 94.7 | 5.7 | -1.6
O=C(CSc1nc2c([nH]c3ccccc32)c(=O)n1-c1ccc(F)cc1)NCc1ccco1 | -0.2 | i | 0.9 | 100.9* | 76.8 | -0.6 | 38.8
O=C(CSc1nc2ccccc2c(=O)n1-c1ccccc1)NCc1ccco1 | -2.4 | i | -0.5 | -5.1 | . | . | .
Cc1ccc(-n2c(SCC(=O)Nc3cc(C)on3)nc3c([nH]c4ccccc43)c2=O)cc1 | 2.2 | i | -0.4 | 91.8* | 73.9 | 9.6 | 22.9
O=S(=O)(NCC(c1cccnc1)N1CCN(c2ccc(F)cc2)CC1)c1cc(F)ccc1F (stereo not given) | -13.1 | i | -0.3 | -5.9 | 98.0 | . | .
COc1ccc(N2CCN(C(CNS(=O)(=O)c3cc(F)ccc3F)c3cccnc3)CC2)cc1 (stereo not given) | 3.9 | i | 0.0 | 84.2* | 101.9 | 16.4 | -11.4
O=CN1CCN(C(C(=O)NC2CCCC2)c2cc3c(cc2[N+](=O)[O-])OCO3)CC1 (stereo not given) | . | i | -0.3 | 60.4* | 118.2 | 14.2 | 7.6
COc1ccc(C(=O)COC(=O)c2ccccn2)cc1OC | -11.4 | . | -0.2 | 56.4* | 115.7 | -2.4 | 2.9
COc1cc(OC)cc(C(=O)O/N=C(\N)c2ccccn2)c1 | -33.2 | i | 0.8 | 55.3* | 99.6 | -4.6 | -5.5
O=C(COC(=O)c1ccccn1)c1ccc(Br)cc1 | -30.6 | i | -0.4 | -11.5 | 94.1 | . | .
Cc1noc(C)c1S(=O)(=O)N(C)C[C@H]1Oc2ccc(NC(=O)Nc3ccc4c(c3)OCO4)cc2CC(=O)N([C@@H](C)CO)C[C@H]1C | -3.9 | . | . | . | . | . | .
C[C@@H]1CN([C@H](C)CO)C(=O)CCCn2cc(nn2)CO[C@H]1CN(C)Cc1cccnc1 | -19.5 | . | . | . | . | . | .
CN(CC(=O)NCCCN1CCOCC1)S(=O)(=O)c1cc(Cl)ccc1Cl | -4.5 | i | -0.3 | 63.7* | 113.1 | 9.3 | -2.2
COc1ccc(NC(=O)N(C)C[C@H]2Oc3ccc(NC(=O)c4ccncc4)cc3CC(=O)N([C@H](C)CO)C[C@H]2C)cc1 | -2.2 | . | . | . | . | . | .
C[C@@H]1CCCCO[C@@H](CN(C)S(=O)(=O)c2cccs2)[C@H](C)CN([C@@H](C)CO)C(=O)c2cc(NS(=O)(=O)c3cn(C)cn3)ccc2O1 | -2.8 | . | . | . | . | . | .
O=C(O)/C=C\C(=O)Nc1ccc(OC(F)F)cc1 | . | i | -0.9 | 54.4* | 100.9 | -11.6 | -1.2
COc1ccc(NC(=O)N(C)C[C@@H]2Oc3c(NC(=O)Nc4ccc5c(c4)OCO5)cccc3C(=O)N([C@@H](C)CO)C[C@@H]2C)cc1 | 2.7 | . | . | . | . | . | .
CCOC(=O)C1=C(COC(=O)CCC(=O)c2ccc(C)cc2)NC(=O)NC1C (stereo not given) | 0.6 | . | -0.1 | -0.5 | . | -3.6 | -12.5
CCOC(=O)C1=C(COC(=O)Cc2ccccc2F)NC(=O)NC1C (stereo not given) | 2.9 | i | -0.2 | 15.8 | 105.5 | -5.0 | -9.7
CCOC(=O)C1=C(COC(=O)CCc2ccccc2)NC(=O)NC1C (stereo not given) | -4.4 | . | -0.2 | 3.0 | 106.4 | -6.7 | -2.4
CCOC(=O)C1=C(COC(=O)/C=C/c2ccccc2F)NC(=O)NC1C (stereo not given) | 18.9 | i | -0.3 | 26.9 | 118.7 | . | .
CCOC(=O)C1=C(COC(=O)C2CC(=O)N(CCc3ccccc3)C2)NC(=O)NC1C (stereo not given) | -6.4 | . | -0.1 | 4.2 | 104.4 | . | .
CCOC(=O)C1=C(COC(=O)Cc2ccc(Br)cc2)NC(=O)NC1C (stereo not given) | -9.3 | . | -0.5 | 3.0 | 109.7 | 12.3 | -5.5
COc1ccccc1C(=O)Nc1ccc2c(c1)OC[C@H](C)NC[C@H](C)[C@H](OC)CN(C)C2=O | -12.5 | . | . | . | . | . | .

Some of the entries above in another layout:
SMILES: CCOC(=O)C1=C(COC(=O)Cc2ccccc2F)NC(=O)NC1C (stereo not given)
  UUG fidelity: 2.9	Rce1 inhib: i	TbMetRS inhib: -0.2	Arrestin-AP2 inh: 15.8	DSG3 Ab inh: 105.5	Arr-AP2 CP1: -5.0	GST-FITC bead: -9.7
SMILES: CCOC(=O)C1=C(COC(=O)CCc2ccccc2)NC(=O)NC1C (stereo not given)
  UUG fidelity: -4.4	Rce1 inhib: .	TbMetRS inhib: -0.2	Arrestin-AP2 inh: 3.0	DSG3 Ab inh: 106.4	Arr-AP2 CP1: -6.7	GST-FITC bead: -2.4
SMILES: CCOC(=O)C1=C(COC(=O)/C=C/c2ccccc2F)NC(=O)NC1C (stereo not given)
  UUG fidelity: 18.9	Rce1 inhib: i	TbMetRS inhib: -0.3	Arrestin-AP2 inh: 26.9	DSG3 Ab inh: 118.7	Arr-AP2 CP1: .	GST-FITC bead: .
SMILES: CCOC(=O)C1=C(COC(=O)C2CC(=O)N(CCc3ccccc3)C2)NC(=O)NC1C (stereo not given)
  UUG fidelity: -6.4	Rce1 inhib: .	TbMetRS inhib: -0.1	Arrestin-AP2 inh: 4.2	DSG3 Ab inh: 104.4	Arr-AP2 CP1: .	GST-FITC bead: .

Further records
SMILES | UUG fidelity | Rce1 inhib | TbMetRS inhib | Arrestin-AP2 inh | DSG3 Ab inh | Arr-AP2 CP1 | GST-FITC bead
CN1C(=O)c2cc(NC(=O)Cc3ccccc3)ccc2OC[C@H]2O[C@@H](CC(=O)O)CC[C@@H]21 | 17.1 | . | . | . | . | . | .
C[C@@H]1CN([C@@H](C)CO)C(=O)c2cc(NC(=O)Nc3ccccc3)ccc2O[C@H]1CN(C)Cc1ccc(Cl)c(Cl)c1 | 1.0 | . | . | . | . | . | .
CCOC(=O)C1=C(COC(=O)CCc2ccc(CC)cc2)NC(=O)NC1C (stereo not given) | -14.6 | . | -0.2 | -7.9 | 110.3 | -1.0 | 1.0
CCOC(=O)C1=C(COC(=O)CCS(=O)(=O)c2ccc(C)cc2)NC(=O)NC1C (stereo not given) | -5.9 | . | -0.7 | 12.7 | 95.2 | . | .
Cn1c(=O)c2c(ncn2CC(=O)N2CCN(S(=O)(=O)c3ccccc3)CC2)n(C)c1=O | 21.1 | i | -0.5 | 57.2* | 95.2 | -2.4 | -4.0
C[C@H]1CN([C@@H](C)CO)C(=O)c2cccc(NC(=O)Nc3ccc4c(c3)OCO4)c2O[C@H]1CN(C)C(=O)Nc1ccc2c(c1)OCO2 | -3.0 | . | . | . | . | . | .
CCC(C)(C)NC(=O)C(c1cccnc1)N(C(=O)c1csnn1)c1ccccc1 (stereo not given) | . | i | -0.9 | 54.2* | 105.7 | 0.3 | -8.1
C[C@@H]1CN([C@@H](C)CO)C(=O)c2cc(-c3ccc(F)cc3)cnc2O[C@@H]1CN(C)Cc1ccc(F)cc1 | -23.6 | . | . | . | . | . | .
COc1cccc(-n2nc3c(=S)[nH]nc(C)c3c2C)c1 | . | i | -0.3 | 85.1* | 121.0 | 16.6 | -3.5
